Results published in patent US20060264460A1 (Wyeth, priority 2005, published 2006).

Sequences of proteins named here, by UniProt entry; tags and fusion partners are left off. Residues count along the entry.
UniProt P41279, 30-398 limits assumed: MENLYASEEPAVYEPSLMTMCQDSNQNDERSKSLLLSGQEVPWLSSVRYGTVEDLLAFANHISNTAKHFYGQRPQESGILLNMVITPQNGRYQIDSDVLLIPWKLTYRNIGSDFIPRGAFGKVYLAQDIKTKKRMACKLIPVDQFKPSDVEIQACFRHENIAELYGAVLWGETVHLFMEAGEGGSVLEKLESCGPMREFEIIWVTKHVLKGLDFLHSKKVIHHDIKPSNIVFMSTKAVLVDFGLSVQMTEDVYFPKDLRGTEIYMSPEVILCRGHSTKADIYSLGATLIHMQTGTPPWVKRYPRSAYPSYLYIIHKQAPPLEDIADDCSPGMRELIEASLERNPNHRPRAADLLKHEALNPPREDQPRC

Biological target: human Cot/Tpl2 kinase (Homo sapiens, UniProt P41279)
Experiment: Tpl2/Cot kinase assay: GST-MEK1 phosphorylation detected by ELISA (DELFIA Eu)
Assay type: biochemical
Conditions: 50 uM ATP

Row | IC50 (Table 2, GST-MEK1 substrate) | SMILES | IC50 (GST-MEK1 substrate)
1 |  | N#Cc1cnc2c(Br)cc(NCc3cn(Cc4cccc(C(F)(F)F)n4)nn3)cc2c1Nc1ccc(F)c(Cl)c1 | 0.27 µM
2 |  | N#Cc1cnc2c(Cl)cc(NCc3cn(C4CN5CCC4CC5)nn3)cc2c1Nc1ccc(F)c(Cl)c1 (stereo not drawn) | 0.0018 µM
3 | 4.8 µM | CC(C)(C)Nc1c(C#N)cnc2ccc(NCc3cccc(S(C)(=O)=O)c3)cc12 | 
